For this test, the target named is Norepinephrine transporter (NET) (Homo sapiens, UniProt P23975). The test is described as follows: Pharmacological screen, norepinephrine transporter. Format: binding.

By UniProt entry, the sequences of proteins in these tests, tags left out.
UniProt P23975, whole entry: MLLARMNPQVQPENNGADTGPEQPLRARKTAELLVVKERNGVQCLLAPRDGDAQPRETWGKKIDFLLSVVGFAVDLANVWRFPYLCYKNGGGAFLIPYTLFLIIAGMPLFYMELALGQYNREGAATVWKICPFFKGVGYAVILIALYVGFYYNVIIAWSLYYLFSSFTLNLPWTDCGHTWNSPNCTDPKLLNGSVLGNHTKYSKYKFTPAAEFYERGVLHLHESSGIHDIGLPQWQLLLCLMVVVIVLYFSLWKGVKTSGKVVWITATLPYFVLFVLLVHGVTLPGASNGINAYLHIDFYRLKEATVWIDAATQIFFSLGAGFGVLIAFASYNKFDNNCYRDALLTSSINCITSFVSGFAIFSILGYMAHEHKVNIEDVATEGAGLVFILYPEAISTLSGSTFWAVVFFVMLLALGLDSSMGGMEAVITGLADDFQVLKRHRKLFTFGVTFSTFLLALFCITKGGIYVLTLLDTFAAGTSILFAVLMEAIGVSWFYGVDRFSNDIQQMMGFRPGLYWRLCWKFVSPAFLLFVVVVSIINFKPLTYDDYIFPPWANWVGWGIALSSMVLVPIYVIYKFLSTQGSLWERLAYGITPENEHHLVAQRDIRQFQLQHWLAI

Molecules are shown by their SMILES. Counter-ions that a name gives are not always drawn.

In turn, `CC(NC(C)(C)C)C(=O)c1cccc(Cl)c1` (racemic) [Bupropion, Rac-bupropion hydrochloride, reference compound] returned a half-maximal inhibitory concentration (IC50) of 19.9 µM and a Ki of 19.8 µM.
